Measured values reported in patent US20060177437A1 (CATCHMABS B V, published 2006).

Key:
bovine lactoferrin [1] = biological target: T1, bovine lactoferrin (bovine, UniProt P24627 20-708); assay: iMab on Ni-NTA column, 0.2 mg/ml lactoferrin loaded, NaCl elution, SDS-PAGE
bovine lactoferrin [2] = biological target: T1, bovine lactoferrin; assay: phage display selection, then column binding as in Example 10
[3] = biological target: T2, chicken egg white lysozyme (chicken, UniProt P00698 19-147); assay: affinity chromatography against a Ni-NTA matrix without iMab100 (milk powder)
T2 sequence: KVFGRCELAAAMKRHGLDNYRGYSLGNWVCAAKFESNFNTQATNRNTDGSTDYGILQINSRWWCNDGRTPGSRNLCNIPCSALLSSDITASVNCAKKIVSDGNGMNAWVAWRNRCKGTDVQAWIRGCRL

B1: iMab142-02-0002 (designed binder)
chain: MNVKLVEKGGNFVENDDDLKLTCRAEGYTIGPYSMGWFRQAPNDDSTNVSCINMGGGITYYGDSVKERFDIRRDNASNTVTLSMDDLQPEDSAVYSCAADWWDGFTYGSTWYNPSSYDYRGQGTDVTVSSASSAGGGGSYTDIEMNRLGKSHHHHHHG
- binding result (bovine lactoferrin [1]): binds

B2: iMab144-02-0014 (designed binder)
chain: MLQVDIKPSQGEISVGESKFFLCQASGYTIGPSISWFSPNGEKLNMGSSTLTIYNANIDSAGIYNCATDGPEYGSSCQRTWVDSPDEFDFSEASVNVKIFQASSAGGGGSYTDIEMNRLGKSHHHHHHG
- binding result (bovine lactoferrin [2]): binds

B3: iMab143-02-0012 (designed binder)
chain: MIKVYTDRENYGAVGSQVTLHCSASGYTIGPISFTWRYQPEGDRDAISIFHYNMGDGSIVIHNLDYSDNGSFTCAADPVGSCYADGFDSGNSSQVTLYVFEASSAGGGGSYTDIEMNRLGKSHHHHHHG
- binding result (bovine lactoferrin [2]): binds

B4: iMab143-02-0013 (designed binder)
chain: MIKVYTDRENYGAVGSQVTLHCSASGYTIGPISFTWRYQPEGDRDAISIFHYNMGDGSIVIHNLDYSDNGSFTCAADPRGSCWVGEYDYGNSSQVTLYVFEASSAGGGGSYTDIEMNRLGKSHHHHHHG
- binding result (bovine lactoferrin [2]): binds

B5: iMab100 + VSV + HIS (designed binder)
chain: MNVKLVEKGGNFVENDDDLKLTCRAEGYTIGPYCMGWFRQAPNDDSTNVATINMGGGITYYGDSVKERFDIRRDNASNTVTLSMDDLQPEDSAEYNCAGDSTIYASYYECGHGLSTGGYGYDSHYRGQGTDVTVSSASSAGGGGSYTDIEMNRLGKSHHHHHHG
- binding result [3]: binds

B6: iMab142-02-0010 (designed binder)
chain: MNVKLVEKGGNFVENDDDLKLTCRAEGHTIGPYSMGWFRQAPNDDSTNVSCINMGGGITYYGDSVKERFDIRRDNASNTVTLSMDDLQPEDSAVYNCAAVMVRTRIPYGSSWYLHPLNTYEYDYRGQGTDVTVSSASSAGGGGSYTDIEMNRLGKSHHHHHHG
- binding result (bovine lactoferrin [1]): binds

B7: iMab142-02-0011 (designed binder)
chain: MNVKLVEKGGNFVENDDDLKLTCRAEGYTIGPYCMGWFRQAPNDDSTNVSCINMGGGITYYGDSVKERFDIRRDNASNTVTLSMDDLQPEDSAVYNCAADPVGSCYADGFDSRGQGTDVTVSSASSAGGGGSYTDIEMNRLGKSHHHHHHG
- binding result (bovine lactoferrin [2]): binds
